{"source": "ChEMBL document CHEMBL3526117", "about": "“Evaluation of inhibition selectivity for human cytochrome P450 2A enzymes” (Drug Metab Dispos, 2012)", "key": {"Cytochrome P450 2A6 [1]": {"molecular_target": "T1, Cytochrome P450 2A6 (Homo sapiens, UniProt P11509)", "T1 sequence (P11509 whole entry)": "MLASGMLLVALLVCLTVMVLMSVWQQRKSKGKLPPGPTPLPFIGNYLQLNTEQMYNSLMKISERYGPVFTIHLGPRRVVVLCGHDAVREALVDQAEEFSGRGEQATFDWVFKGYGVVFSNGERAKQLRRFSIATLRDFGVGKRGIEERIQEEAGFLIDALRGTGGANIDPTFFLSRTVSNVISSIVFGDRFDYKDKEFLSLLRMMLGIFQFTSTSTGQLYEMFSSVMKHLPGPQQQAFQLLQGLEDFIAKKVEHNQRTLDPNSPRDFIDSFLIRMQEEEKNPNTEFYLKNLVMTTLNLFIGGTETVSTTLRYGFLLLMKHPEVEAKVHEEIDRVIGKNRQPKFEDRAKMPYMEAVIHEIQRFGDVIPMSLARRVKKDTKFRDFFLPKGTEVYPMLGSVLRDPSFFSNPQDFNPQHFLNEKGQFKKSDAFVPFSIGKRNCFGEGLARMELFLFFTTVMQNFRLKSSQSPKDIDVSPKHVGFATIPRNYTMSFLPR", "assay": "Binding affinity to CYP2A6 (unknown origin) assessed as type 2 interaction as increase in absorbance 431 to 432 nm and decrease in 406 to 412 nm", "type": "ADME"}, "Cytochrome P450 2A6 [2]": {"molecular_target": "T1, Cytochrome P450 2A6", "assay": "Mixed inhibition of CYP2A6 (unknown origin)", "type": "ADME"}}}
{"smiles": "N[C@@H]1C[C@H]1c1ccccc1.N[C@H]1C[C@@H]1c1ccccc1", "note": "(racemic) [TRANYLCYPROMINE]", "values": [{"measurement": "Kd", "setting": "Cytochrome P450 2A6 [1]", "result": 2000, "unit": "nM"}, {"measurement": "Ki", "setting": "Cytochrome P450 2A6 [2]", "result": 130, "unit": "nM"}]}
